Measurements: ChEMBL document CHEMBL1159180, “Synthesis of 7-chloro-4-substituted aminoquinolines and their in vitro ability to produce methemoglobin in canine hemolysate” (1997)

Key:
Conditions in all cases: Canis lupus familiaris
[1] = target: T1, NADH-cytochrome b5 reductase (Homo sapiens) (UniProt P00387); assay: In vitro effect on methemoglobin reductase activity at 33 uM concentration; enzyme activity expressed as nmoles of methemoglobin reduced min-1.mg. protein -1
T1 sequence (whole entry): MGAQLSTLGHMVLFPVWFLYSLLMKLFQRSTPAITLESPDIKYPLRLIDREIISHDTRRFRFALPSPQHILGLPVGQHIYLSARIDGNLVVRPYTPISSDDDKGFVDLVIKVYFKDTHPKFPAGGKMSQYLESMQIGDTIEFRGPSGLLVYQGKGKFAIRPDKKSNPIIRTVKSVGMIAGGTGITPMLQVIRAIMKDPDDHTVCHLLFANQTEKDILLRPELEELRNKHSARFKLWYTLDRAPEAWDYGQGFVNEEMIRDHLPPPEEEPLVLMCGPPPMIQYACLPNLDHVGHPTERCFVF

[2] = target: T1, NADH-cytochrome b5 reductase (Homo sapiens); assay: In vitro effect on methemoglobin reductase activity at 166 uM concentration; enzyme activity expressed as nmoles of methemoglobin reduced min-1.mg. protein -1
[3] = target: T1, NADH-cytochrome b5 reductase (Homo sapiens); assay: Percentage inhibition of methemoglobin reductase by the compound at 133 uM concentration
[4] = target: T1, NADH-cytochrome b5 reductase (Homo sapiens); assay: In vitro effect on methemoglobin reductase activity at specified 33 uM concentration; enzyme activity expressed as nmoles of methemoglobin reduced min-1.mg. protein -1
[5] = target: T1, NADH-cytochrome b5 reductase (Homo sapiens); assay: In vitro effect on methemoglobin reductase activity at specified 166 uM concentration; enzyme activity expressed as nmoles of methemoglobin reduced min-1.mg. protein -1

| Compound | Methemoglobin [1] | Methemoglobin [2] | inhibition [3] [%] | Methemoglobin [4] | Methemoglobin [5] |
| --- | --- | --- | --- | --- | --- |
| O=NO | 0.065 | 0.065 |  |  |  |
| O=[N+]([O-])c1ccc(NNc2ccnc3cc(Cl)ccc23)cc1 | 0.065 | 0.032 | 50 |  |  |
| Clc1ccc2c(NCCN3CCN(c4ccccc4)CC3)ccnc2c1 |  |  |  | 0.065 | 0.065 |
| CCN(CC)CCCC(C)NCCCN1CCN(c2ccnc3cc(Cl)ccc23)CC1 (stereo unspecified) |  |  |  | 0.065 | 0.065 |
| O=[N+]([O-])c1ccc(OCCNc2ccnc3cc(Cl)ccc23)cc1 | 0.065 | 0.059 |  |  |  |
| Clc1ccc2c(NCc3ccco3)ccnc2c1 |  |  |  | 0.065 | 0.057 |
| CN1CCN(CCCN2CCN(c3ccnc4cc(Cl)ccc34)CC2)CC1 |  |  |  | 0.065 | 0.065 |
| N#Cc1ccc(OCCNc2ccnc3cc(Cl)ccc23)cc1 |  |  |  | 0.065 | 0.005 |
| COc1cc(NC(C)CCCN)c2ncccc2c1 (stereo unspecified) | 0.065 | 0.056 |  |  |  |
| O=[N+]([O-])c1cc2c(NCCO)ccnc2cc1Cl |  |  |  | 0.065 | 0.065 |
| CC(=O)c1ccc(Nc2ccnc3cc(Cl)c([N+](=O)[O-])cc23)c([N+](=O)[O-])c1 | 0.065 | 0.065 |  |  |  |
| Clc1ccc2c(NCCN3CCNCC3)ccnc2c1 |  |  |  | 0.065 | 0.065 |
| OCCNc1ccnc2cc(Cl)ccc12 |  |  |  | 0.065 | 0.065 |
| CCN(CC)CCCC(C)Nc1ccnc2cc(Cl)ccc12 (stereo unspecified) |  |  |  | 0.065 | 0.065 |
| Clc1ccc2c(NCCN3CCN(c4ccccn4)CC3)ccnc2c1 |  |  |  | 0.065 | 0.065 |
